Experimental data as given in US8530470B2, “Chromenone derivatives” (Astrazeneca AB, priority 2011, dated 2013).

Chains of the proteins cited; added tags and fusions are not shown. Lines headed by an entry give the natural chain unless they say otherwise; changes in a name come on top.
UniProt P42338: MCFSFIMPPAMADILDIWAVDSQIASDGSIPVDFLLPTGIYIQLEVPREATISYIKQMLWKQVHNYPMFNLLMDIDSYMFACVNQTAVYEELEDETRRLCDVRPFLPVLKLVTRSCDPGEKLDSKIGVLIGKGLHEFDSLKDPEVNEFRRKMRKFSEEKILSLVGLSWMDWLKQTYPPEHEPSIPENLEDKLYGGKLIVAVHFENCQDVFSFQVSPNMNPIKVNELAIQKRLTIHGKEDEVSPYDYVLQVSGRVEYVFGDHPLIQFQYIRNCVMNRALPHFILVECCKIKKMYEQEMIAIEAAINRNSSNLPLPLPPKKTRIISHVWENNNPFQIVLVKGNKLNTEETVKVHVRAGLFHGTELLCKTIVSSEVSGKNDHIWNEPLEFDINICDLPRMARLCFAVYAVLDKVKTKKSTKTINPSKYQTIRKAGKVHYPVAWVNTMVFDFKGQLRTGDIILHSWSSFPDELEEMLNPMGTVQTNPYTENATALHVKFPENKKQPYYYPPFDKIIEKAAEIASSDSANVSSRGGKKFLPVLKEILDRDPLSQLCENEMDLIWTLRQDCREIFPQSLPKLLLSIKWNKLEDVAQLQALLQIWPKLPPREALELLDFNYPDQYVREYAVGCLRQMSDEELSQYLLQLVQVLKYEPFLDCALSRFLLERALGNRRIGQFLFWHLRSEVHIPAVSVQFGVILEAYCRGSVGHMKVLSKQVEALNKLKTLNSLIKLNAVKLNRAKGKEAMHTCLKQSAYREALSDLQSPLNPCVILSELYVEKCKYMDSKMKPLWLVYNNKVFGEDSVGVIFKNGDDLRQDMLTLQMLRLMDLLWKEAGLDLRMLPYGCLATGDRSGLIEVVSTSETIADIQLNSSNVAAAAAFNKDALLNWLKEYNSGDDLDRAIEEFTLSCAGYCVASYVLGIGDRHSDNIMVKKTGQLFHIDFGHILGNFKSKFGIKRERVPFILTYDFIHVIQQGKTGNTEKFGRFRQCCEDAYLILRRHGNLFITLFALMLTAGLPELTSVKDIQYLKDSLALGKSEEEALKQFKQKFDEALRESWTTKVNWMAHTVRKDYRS

biological target: PI3Kβ (Homo sapiens, UniProt P42338); test: In vitro enzyme inhibition assay (Kinase Glo), PI3Kβ; assay type: biochemical; settings: Test (a); human recombinant enzyme; ATP 8 μM, PIP2 80 μM; Table A
Description: (a) In Vitro Enzyme Inhibition Assay
The inhibition of PI3Kβ, PI3Kα, PI3Kγ and PI3Kδ was evaluated in a Kinase Glo based enzyme activity assay using human recombinant enzymes. The assay measures depletion of ATP after incubation with enzyme, PIP2 and ATP plus compound. ATP at the end of the reaction is detected by addition of Kinase Glo reagent, in this the Ultra Glo™ luciferase (Promega) uses the ATP as a substrate to catalyze the mono-oxygenation of luciferin and the generation of light. A direct relationship exists between the luminescence measured with the Kinase-Glo Plus Reagent and the amount of ATP remaining in a completed kinase reaction and luminescence is inversely related to kinase activity. Twelve different compound concentrations were tested and raw data from the inhibition of PI3Kβ, PI3Kα, PI3Kγ and PI3Kδ was plotted versus inhibitor concentration.
Compounds in 100% DMSO were added to assay plates by acoustic dispensing. PI3β was added in a Tris buffer (50 mM Tris pH7.4, 0.05% CHAPS, 2.1 mM DTT, and 10 mM MgCl2) and allowed to preincubate with compound for 20 min prior to addition of substrate solution containing PIP2 and ATP. The enzyme reaction was stopped after 80 min by the addition of Kinase Glo detection solution. […] The final concentration of DMSO, ATP and PIP2 in the assay were, 1%, 8 μM, and 80 μM respectively.
IC50 values were calculated using a log curve fitting to a non-linear regression package, fitting raw data to inhibitor concentration.

pIC50 | Structure (SMILES)
7.82 | O=C(c1cc(C2CCCN2c2cc(F)cc(F)c2)c2oc(N3CCOCC3)cc(=O)c2c1)N1CCC(O)CC1 (stereo not shown) [Example 1.02, 8-(1-(3,5-difluorophenyl)pyrrolidin-2-yl)-6-(4-hydroxypiperidine-1-carbonyl)-2-morpholino-4H-chromen-4-one]
7.89 | CN(C)C(=O)c1cc(C2CCCN2c2cc(F)cc(F)c2)c2oc(N3CCOCC3)cc(=O)c2c1 (stereo not shown) [Example 1.00, 8-[1-(3,5-difluorophenyl)pyrrolidin-2-yl]-N,N-dimethyl-2-morpholino-4-oxo-4H-chromene-6-carboxamide]
7.80 | CN(CCO)C(=O)c1cc(C2CCCN2c2cc(F)cc(F)c2)c2oc(N3CCOCC3)cc(=O)c2c1 (stereo not shown) [Example 1.01, 8-(1-(3,5-difluorophenyl)pyrrolidin-2-yl)-N-(2-hydroxyethyl)-N-methyl-2-morpholino-4-oxo-4H-chromene-6-carboxamide]
8.15 | CN1CCN(C(=O)c2cc([C@H]3CCCN3c3cc(F)cc(F)c3)c3oc(N4CCOCC4)cc(=O)c3c2)CC1 [Example 1.09, 8-[(2R)-(1-(3,5-difluorophenyl)pyrrolidin-2-yl)]-6-(4-methylpiperazine-1-carbonyl)-2-morpholino-4H-chromen-4-one]

pIC50: −log10 of the molar value.
